According to PubChem BioAssay (NCI):
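All cell lines were grown in 96-well plates and treated with compound for 48 hours. TGI denotes the concentration required for complete inhibition of growth.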

Experiments:
Test in all cases: NCI anticancer screen, dose series, 48 h
[1] = tested on: BT-549 breast
[2] = tested on: NCI-H460 lung
[3] = tested on: HOP-92 NSCLC
[4] = tested on: EKVX NSCLC
[5] = tested on: SF-295 CNS
[6] = tested on: HOP-62 NSCLC
[7] = tested on: SK-MEL-2 melanoma
[8] = tested on: A549 NSCLC
[9] = tested on: COLO 205 colon
[10] = tested on: NCI-H522 lung
[11] = tested on: A498 renal
[12] = tested on: RXF 393 renal
[13] = tested on: MOLT-4 leukemia
[14] = tested on: U251 CNS
[15] = tested on: SR leukemia
[16] = tested on: MCF7 breast
[17] = tested on: SNB-75 CNS
[18] = tested on: SW-620 colon
[19] = tested on: HT29 colon
[20] = tested on: KM12 colon
[21] = tested on: HS 578T breast
[22] = tested on: MALME-3M melanoma
[23] = tested on: DU-145 prostate
[24] = tested on: TK-10 renal
[25] = tested on: UO-31 renal
[26] = tested on: NCI/ADR-RES ovarian
[27] = tested on: ACHN renal
[28] = tested on: SF-268 CNS
[29] = tested on: NCI-H23 lung
[30] = tested on: NCI-H322M lung
[31] = tested on: IGROV1 ovarian
[32] = tested on: UACC-257 melanoma
[33] = tested on: PC-3 prostate
[34] = tested on: SK-MEL-28 melanoma
[35] = tested on: SF-539 CNS
[36] = tested on: UACC-62 melanoma
[37] = tested on: RPMI-8226 leukemia
[38] = tested on: OVCAR-8 ovarian
[39] = tested on: OVCAR-3 ovarian
[40] = tested on: CAKI-1 renal
[41] = tested on: SK-MEL-5 melanoma
[42] = tested on: HCT-116 colon
[43] = tested on: MDA-MB-231 breast
[44] = tested on: K-562 leukemia
[45] = tested on: SN12C renal
[46] = tested on: 786-0 renal
[47] = tested on: MDA-N
[48] = tested on: HCT-15 colon
[49] = tested on: LOX IMVI melanoma
[50] = tested on: MDA-MB-435
[51] = tested on: SK-OV-3 ovarian
[52] = tested on: T-47D breast
[53] = tested on: M14 melanoma
[54] = tested on: OVCAR-5 ovarian
[55] = tested on: SNB-19 CNS

Measured: TGI

C[As](C)(=O)O
> 100 µM: all assays above
